According to ChEMBL document CHEMBL1122420, “Parasympatholytic (anticholinergic) esters of the isomeric 2-tropanols. 2. Non-glycolates” (J Med Chem, 1983):

System: Mus musculus
Assay: Induction of mydriasis in mice following s.c. administration.
Assay type: functional

COc1cc(C(=O)OC2CN3CCC2CC3)cc(OC)c1OC (stereo unspecified)
ED50: > 10 mg/kg
